These results are taken from paper PMC10073729, “Synthesis, radiolabeling, and evaluation of 68Ga-labeled aminoquinoxaline derivative as a potent PFKFB3-targeted PET tracer” (Frontiers in Chemistry, 2023).

The structures appear in SMILES notation.

The subject of this assay is NUGC3 tumors. Nature of the assay: Micro-PET imaging in nude mice bearing NUGC3 tumors. Particulars: mouse, in vivo. Further details: species or system BALB/c nude mice.

Consider `OC[C@H]1OC(O)[C@H](F)[C@@H](O)[C@@H]1O` (some centres unmarked) [^18F-FDG, ^18F-fluorodeoxyglucose], for which the “Tumor SUV” value turned out to be 0.54 and the Tumor-to-muscle ratio was 8.28.
